Test results as given in US20160340652A1, “CULTURE MEDIUM FOR STEM CELL DIFFERENTIATION” (The USA, as represented by the Secretary, Dept. of Health …, priority 2013, published 2016).

Test system: hPSC
Assay: Comparison of heparin, albumin and B27 on cardiac differentiation in E8 basal, RPMI and DMEM/F12 media
Type: cell-based, human
From the text: Data shown is FACS using CTNT antibody. The batch numbers of the heparin or albumin batches used are listed.
Data shown is realtime PCR of cardiac troponin T (CTNT).
After establishing heparin as an efficient cardiac-promoting reagent, we revisited B27 and albumin's role in cardiac differentiation. Most current protocols in the literature used RPMI basal medium for cardiac differentiation, because DMEM/F12 was reported to be less efficient (Lian, et al., PNAS, 2012, supra; Burridge et al., Cell stem cell, 2012, supra).

## albumin: recombinant human albumin
E8 basal media, albumin alone
  cardiac differentiation: couldn't promote cardiac differentiation
E8 basal media, presence of IWP2
  cardiac differentiation: only a marginal improvement
RPMI media, with or without IWP2
  cardiac differentiation: positive impact
